Biological target: proteasome (Homo sapiens, UniProt P28074)
Conditions: HEK293 cell lysate; Velcade 40 nM; FIG. 7

Chains of the proteins cited; added tags and fusions are not shown. Lines headed by an entry give the natural chain unless they say otherwise; changes in a name come on top.
UniProt P28074: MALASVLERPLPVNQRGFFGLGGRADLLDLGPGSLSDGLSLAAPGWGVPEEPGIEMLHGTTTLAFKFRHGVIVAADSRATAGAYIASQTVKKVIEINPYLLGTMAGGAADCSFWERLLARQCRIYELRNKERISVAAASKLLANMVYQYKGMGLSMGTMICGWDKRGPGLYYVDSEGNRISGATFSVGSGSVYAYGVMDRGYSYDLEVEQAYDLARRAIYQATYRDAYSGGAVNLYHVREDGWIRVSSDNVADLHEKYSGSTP

CC(C)C[C@H](NC(=O)[C@H](Cc1ccccc1)NC(=O)c1cnccn1)B(O)O [Velcade]
number of identified peptides: significantly reduced
